# Literature values in patent publication EP0649656B1, “Pharmaceutical compositions based on acriflavine useful for the treatment of herpes and zona” (priority 1993, dated 1995).
# Details: cited from earlier work
substance,measurement,value
acriflavine [ACF],solubilité dans le chloroforme,pratiquement insoluble
